In patent US20110236822A1, “METHOD OF TREATING SEASONED DEVELOPER SOLUTION” (priority 2010, published 2011):

Assay: Treatment of IR dye with oxidative and reducing reagents to degrade the dye (TABLE I)
Assay type: physicochemical
Conditions: 0.3% IR dye 66e in methanol; Heat

CC(=O)OOC(C)(C)C
Change Noticed: Dye bleached pink
